We go through one substance from article PMC8914530 (Data in Brief, 2022).

By UniProt entry, the sequences of proteins in these tests, tags left out. Where a name states a change or a piece, a line headed by the entry shows the natural chain unless it says otherwise.
UniProt P20813: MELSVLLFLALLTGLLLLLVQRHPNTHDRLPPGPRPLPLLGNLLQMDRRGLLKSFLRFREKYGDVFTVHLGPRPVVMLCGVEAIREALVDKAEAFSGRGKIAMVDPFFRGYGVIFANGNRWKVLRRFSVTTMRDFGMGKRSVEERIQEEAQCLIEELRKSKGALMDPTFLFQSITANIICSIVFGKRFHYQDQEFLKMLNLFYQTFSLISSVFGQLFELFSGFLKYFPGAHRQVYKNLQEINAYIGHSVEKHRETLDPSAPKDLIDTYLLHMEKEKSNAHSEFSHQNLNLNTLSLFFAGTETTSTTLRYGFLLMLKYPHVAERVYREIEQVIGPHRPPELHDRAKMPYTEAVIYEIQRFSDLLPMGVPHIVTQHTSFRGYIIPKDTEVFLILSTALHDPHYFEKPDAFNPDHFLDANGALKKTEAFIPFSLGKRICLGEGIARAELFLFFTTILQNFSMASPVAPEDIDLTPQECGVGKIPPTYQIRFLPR

The data set deals with CYP2B6 (Homo sapiens, UniProt P20813). Briefly: CYP2B6 Vivid CYP450 Blue fluorescent inhibition assay. The format is biochemical. The settings on record: variable slope sigmoidal fit, GraphPad Prism 7.0.

Turning to (+)-α-Pinene, the “CYP2B6 Hillslope” value was −1.74.
